From ChEMBL document CHEMBL1255351, “Biochemical characterization of metallo-beta-lactamase VIM-11 from a Pseudomonas aeruginosa clinical strain” (2008)

Key:
[1] = test system: CC(C)(O/N=C(\C(=O)N[C@@H]1C(=O)N2C(C(=O)[O-])=C(C[n+]3ccccc3)CS[C@H]12)c1csc(N)n1)C(=O)O; assay: (§1) Activity at Pseudomonas aeruginosa COL-1 metallo-beta lactamase VIM-2 by spectrometry
[2] = test system: CC1(C)S[C@@H]2[C@H](NC(=O)[C@H](N)c3ccccc3)C(=O)N2[C@H]1C(=O)O; assay: as §1
[3] = test system: CO/N=C(\C(=O)N[C@@H]1C(=O)N2C(C(=O)[O-])=C(C[N+]3(C)CCCC3)CS[C@H]12)c1csc(N)n1; assay: as §1
[4] = test system: CO[C@@]1(NC(=O)Cc2cccs2)C(=O)N2C(C(=O)O)=C(COC(N)=O)CS[C@@H]21; assay: as §1
[5] = test system: C[C@@H](O)[C@H]1C(=O)N2C(C(=O)O)=C(SCCNC=N)C[C@H]12; assay: as §1
[6] = test system: CO/N=C(\C(=O)N[C@@H]1C(=O)N2C(C(=O)[O-])=C(C[N+]3(C)CCCC3)CS[C@H]12)c1csc(N)n1; assay: (§2) Ratio of Kcat to Km for Pseudomonas aeruginosa COL-1 metallo-beta lactamase VIM-2
[7] = test system: CO/N=C(\C(=O)N[C@@H]1C(=O)N2C(C(=O)[O-])=C(C[n+]3cccc4c3CCC4)CS[C@H]12)c1csc(N)n1; assay: as §2
[8] = test system: C[C@@H](O)[C@H]1C(=O)N2C(C(=O)O)=C(SCCNC=N)C[C@H]12; assay: as §2
[9] = test system: C[C@H]1[C@H](NC(=O)/C(=N\OC(C)(C)C(=O)O)c2csc(N)n2)C(=O)N1S(=O)(=O)O; assay: as §2
[10] = test system: CO/N=C(\C(=O)N[C@@H]1C(=O)N2C(C(=O)[O-])=C(C[N+]3(C)CCCC3)CS[C@H]12)c1csc(N)n1; assay: (§3) Activity at Pseudomonas aeruginosa M5109 metallo-beta-lactamase VIM-11 by spectrometry
[11] = test system: C[C@@H](O)[C@H]1C(=O)N2C(C(=O)O)=C(SCCNC=N)C[C@H]12; assay: as §3
[12] = test system: CO/N=C(\C(=O)N[C@@H]1C(=O)N2C(C(=O)[O-])=C(C[N+]3(C)CCCC3)CS[C@H]12)c1csc(N)n1; assay: (§4) Ratio of Kcat to Km for Pseudomonas aeruginosa M5109 metallo-beta-lactamase VIM-11
[13] = test system: C[C@@H](O)[C@H]1C(=O)N2C(C(=O)O)=C(SCCNC=N)C[C@H]12; assay: as §4
[14] = test system: C[C@H]1[C@H](NC(=O)/C(=N\OC(C)(C)C(=O)O)c2csc(N)n2)C(=O)N1S(=O)(=O)O; assay: as §4

| Substance | kcat [1] | kcat [2] | Km [3] | kcat [3] | Km [4] | Km [5] | kcat [5] | kcat/Km [6] | kcat/Km [7] | kcat/Km [8] | kcat/Km [9] | Km [10] | kcat [10] | Km [11] | kcat [11] | kcat/Km [12] | kcat/Km [13] | kcat/Km [14] |
| --- | --- | --- | --- | --- | --- | --- | --- | --- | --- | --- | --- | --- | --- | --- | --- | --- | --- | --- |
| Metallo-beta-lactamase VIM-2 (Pseudomonas aeruginosa) (from UniProt D1MEN9) | 2.8 s⁻¹ | 302 s⁻¹ | > 1200 µM | > 33 s⁻¹ | 9.9 µM | 9.9 µM | 30.2 s⁻¹ | 2.8 ×10⁶ /M/s | 2.8 ×10⁶ /M/s | 3.1 ×10⁶ /M/s | Not Active |  |  |  |  |  |  |  |
| Metallo-beta-lactamase VIM-11 (Pseudomonas aeruginosa) (from UniProt C7DTR7) |  |  |  |  |  |  |  |  |  |  |  | > 1200 µM | > 100 s⁻¹ | 9.4 µM | 20 s⁻¹ | 8.3 ×10⁶ /M/s | 2.1 ×10⁶ /M/s | Not Active |
